In patent US9783556B2, “Kinase inhibitors” (RESPIVERT LIMITED, priority 2012, dated 2017):
Like-named read-outs stand apart in the source and are kept apart here.

Amino acid sequences for entries named in this document (tags omitted). Residues count along the entry.
UniProt P12931, 2-536 limits assumed: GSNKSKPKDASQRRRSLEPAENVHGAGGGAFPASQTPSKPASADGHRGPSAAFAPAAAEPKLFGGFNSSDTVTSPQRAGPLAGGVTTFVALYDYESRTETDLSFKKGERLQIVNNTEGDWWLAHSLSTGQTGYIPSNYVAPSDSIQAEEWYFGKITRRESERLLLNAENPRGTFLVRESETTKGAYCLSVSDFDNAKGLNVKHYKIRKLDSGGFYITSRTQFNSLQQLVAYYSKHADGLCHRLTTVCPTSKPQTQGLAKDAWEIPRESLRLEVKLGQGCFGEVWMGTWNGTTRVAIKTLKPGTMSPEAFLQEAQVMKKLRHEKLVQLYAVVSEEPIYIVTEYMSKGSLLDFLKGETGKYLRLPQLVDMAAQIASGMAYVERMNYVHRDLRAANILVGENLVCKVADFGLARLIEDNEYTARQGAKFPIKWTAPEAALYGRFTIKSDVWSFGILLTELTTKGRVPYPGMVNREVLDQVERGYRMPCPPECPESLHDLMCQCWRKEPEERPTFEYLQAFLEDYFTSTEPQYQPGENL
UniProt P49840, whole entry: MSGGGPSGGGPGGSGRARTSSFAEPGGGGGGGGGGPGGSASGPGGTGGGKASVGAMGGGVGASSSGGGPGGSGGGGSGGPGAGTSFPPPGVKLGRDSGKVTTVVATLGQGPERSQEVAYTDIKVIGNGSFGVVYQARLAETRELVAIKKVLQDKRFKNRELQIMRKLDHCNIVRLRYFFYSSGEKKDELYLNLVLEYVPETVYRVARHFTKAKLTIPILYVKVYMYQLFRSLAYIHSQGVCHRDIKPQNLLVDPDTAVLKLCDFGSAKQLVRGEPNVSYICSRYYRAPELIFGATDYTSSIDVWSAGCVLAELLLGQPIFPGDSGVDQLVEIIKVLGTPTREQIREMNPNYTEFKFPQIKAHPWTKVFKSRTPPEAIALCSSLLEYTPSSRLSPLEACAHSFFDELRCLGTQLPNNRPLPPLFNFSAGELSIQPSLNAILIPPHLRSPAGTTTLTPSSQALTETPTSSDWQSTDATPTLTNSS

Experiments:
PBMCs [1] = experiment: IL-2 and IFN gamma release in CD3/CD28 stimulated PBMC cells; format: cell-based, human
Experimental: PBMCs from healthy subjects are separated from whole blood using a density gradient (Lymphoprep, Axis-Shield Healthcare). Cells are added to a 96 well plate pre-coated with a mixture of CD3/CD38 monoclonal antibodies (0.3 μg/mL eBioscience and 3 μg/mL BD Pharmingen respectively). Compound at the desired concentration is then added to the wells and the plate left for 3 days under normal tissue culture conditions. Supernatants are harvested and IL-2 and IFN gamma release determined by Sandwich ELISA (Duo-set, R&D System). The IC50 is determined from the dose response curve.

PBMCs [2] = experiment: LPS-induced TNFα/IL-8 release in PBMC cells; format: cell-based, human; details: read-out: IC50 Values for Inhibition of Cytokine Release PBMCs IL-8, LPS-stimulated PBMCs
Experimental: Peripheral blood mononuclear cells (PBMCs) from healthy subjects are separated from whole blood using a density gradient (Lymphoprep, Axis-Shield Healthcare). The PBMCs are seeded in 96 well plates and treated with compounds at the desired concentration for 2 hours before addition of 1 ng/mL LPS (Escherichia Coli 0111:B4 from Sigma Aldrich) for 24 hours under normal tissue culture conditions (37° C., 5% CO2). The supernatant is harvested for determination of IL-8 and TNFα concentrations by sandwich ELISA (Duo-set, R&D systems) and read on the fluorescence microplate reader (Varioskan® Flash, ThermoFisher Scientific). The concentration at 50% inhibition (IC50) of IL-8 and TNFα production is calculated from the dose response curve.

d-U937 cells = experiment: LPS-induced TNFα/IL-8 release in d-U937 cells; format: cell-based, human; details: LPS-stimulated d-U937 cells
Experimental: U937 cells, a human monocytic cell line, are differentiated to macrophage-type cells by incubation with phorbol myristate acetate (PMA; 100 ng/mL) for 48 to 72 hr. Cells are pre-incubated with final concentrations of test compound for 2 hr and are then stimulated with 0.1 μg/mL of LPS (from E. Coli: O111:B4, Sigma) for 4 hr. The supernatant is collected for determination of TNFα and IL-8 concentrations by sandwich ELISA (Duo-set, R&D systems). The inhibition of TNFα production is calculated as a percentage of that achieved by 10 μg/mL of BIRB796 at each concentration of test compound by comparison against vehicle control. The relative 50% effective concentration (REC50) is determined from the resultant concentration-response curve. The inhibition of IL-8 production is calculated at each concentration of test compound by comparison with vehicle control. The 50% inhibitory concentration (IC50) is determined from the resultant concentration-response curve.

Syk = Syk (Homo sapiens (Human), UniProt P43405); experiment: Syk enzyme inhibition (Z-LYTE FRET); format: biochemical; details: read-out: IC50 Values for Enzyme Inhibition Syk
Experimental: (§1) The enzyme inhibitory activities of compounds disclosed herein are determined by FRET using synthetic peptides labelled with both donor and acceptor fluorophores (Z-LYTE, Invitrogen Ltd., Paisley, UK).
(§2) The inhibitory activities of compounds of the invention against c-Src and Syk enzymes (Invitrogen), are evaluated in a similar fashion to that described hereinabove. The relevant enzyme (3000 ng/mL or 2000 ng/mL respectively, 2.5 μL) is incubated with the test compound (either 4 μg/mL, 0.4 μg/mL, 0.04 μg/mL, or 0.004 μg/mL, 2.5 μL each) for 2 hr at RT. The FRET peptides (8 μM, 2.5 μL), and appropriate ATP solutions (2.5 μL, 800 μM for c-Src, and 60 μM ATP for Syk) are then added to the enzymes/compound mixtures and incubated for 1 hr. Development reagent (protease, 5 μL) is added for 1 hr prior to detection in a fluorescence microplate reader (Varioskan® Flash, ThermoFisher Scientific).
(§3) In all cases, the site-specific protease cleaves non-phosphorylated peptide only and eliminates the FRET signal. Phosphorylation levels of each reaction are calculated using the ratio of coumarin emission (donor) over fluorescein emission (acceptor), for which high ratios indicate high phosphorylation and low ratios indicate low phosphorylation levels. […]

c-Src = c-Src (Homo sapiens (Human), UniProt P12931); experiment: c-Src enzyme inhibition (Z-LYTE FRET); format: biochemical; details: read-out: IC50 Values for Enzyme Inhibition c-Src
Experimental: as §1, §2, §3

GSK 3α = GSK 3α (Homo sapiens (Human), UniProt P49840); experiment: GSK 3α enzyme inhibition (Z-LYTE FRET); details: read-out: IC50 Values for Enzyme Inhibition GSK3α
Experimental: as §1
The following two assay variants can be used for determination of GSK 3α inhibition.
The inhibitory activities of compounds of the invention against the GSK 3α enzyme isoform (Invitrogen), are evaluated by determining the level of activation/phosphorylation of the target peptide. The GSK3-α protein (500 ng/mL, 2.5 μL) is mixed with the test compound (2.5 μL at either 4 μg/mL, 0.4 μg/mL, 0.04 μg/mL, or 0.004 μg/mL) for 2 hr at RT. The FRET peptide (8 μM, 2.5 μL), which is a phosphorylation target for GSK3α, and ATP (40 μM, 2.5 μL) are then added to the enzyme/compound mixture and the resulting mixture incubated for 1 hr. Development reagent (protease, 5 μL) is added for 1 hr prior to detection in a fluorescence microplate reader (Varioskan® Flash, ThermoFisher Scientific).
as §3

**Q.** For `C#Cc1cc(Nc2nccc(Oc3ccc(NC(=O)Nc4cc([Si](C)(C)C)nn4-c4ccc(C)cc4)c4ccccc34)n2)cc(C(=O)NCCN2CCOCC2)c1`, which IC50 (PBMCs [1]; read-out: IC50 Values for Inhibition of Cytokine Release PBMCs IFNγ, IFNγ) is on record?
**A.** Its IC50 is 2.3 nM.

**Q.** And the IC50 (PBMCs [1]; read-out: IC50 Values for Inhibition of Cytokine Release PBMCs IL-2, IL-2)?
**A.** Its IC50 is 94.8 nM.

**Q.** What about the IC50 (PBMCs [2]) of the same molecule?
**A.** Its IC50 is 1.7 nM.

**Q.** And the IC50 (d-U937 cells; read-out: IC50 Values for Inhibition of Cytokine Release dU937 cells IL-8, IL-8)?
**A.** Its IC50 is 3.3 nM.

**Q.** And the IC50 (d-U937 cells; read-out: IC50 Values for Inhibition of Cytokine Release dU937 cells TNFα, TNFα, method describes REC50 relative to BIRB796)?
**A.** The IC50 was 0.5 nM.

**Q.** And the IC50 (Syk)?
**A.** Its IC50 is 65 nM.

**Q.** What about the IC50 (c-Src) of the same molecule?
**A.** Its IC50 is 25 nM.

**Q.** And the IC50 (GSK 3α)?
**A.** Its IC50 is 12800 nM.
